Experimental data reported in patent publication US20260116920A1, “HUMAN TRANSFERRIN RECEPTOR BINDING PEPTIDE” (PEPTIDREAM INC., priority 2021, published 2026).
pKd: −log10 of the molar value.

By UniProt entry, the sequences of proteins in these tests, tags left out. Residues count along the entry.
UniProt P02786, 89-760 limits assumed: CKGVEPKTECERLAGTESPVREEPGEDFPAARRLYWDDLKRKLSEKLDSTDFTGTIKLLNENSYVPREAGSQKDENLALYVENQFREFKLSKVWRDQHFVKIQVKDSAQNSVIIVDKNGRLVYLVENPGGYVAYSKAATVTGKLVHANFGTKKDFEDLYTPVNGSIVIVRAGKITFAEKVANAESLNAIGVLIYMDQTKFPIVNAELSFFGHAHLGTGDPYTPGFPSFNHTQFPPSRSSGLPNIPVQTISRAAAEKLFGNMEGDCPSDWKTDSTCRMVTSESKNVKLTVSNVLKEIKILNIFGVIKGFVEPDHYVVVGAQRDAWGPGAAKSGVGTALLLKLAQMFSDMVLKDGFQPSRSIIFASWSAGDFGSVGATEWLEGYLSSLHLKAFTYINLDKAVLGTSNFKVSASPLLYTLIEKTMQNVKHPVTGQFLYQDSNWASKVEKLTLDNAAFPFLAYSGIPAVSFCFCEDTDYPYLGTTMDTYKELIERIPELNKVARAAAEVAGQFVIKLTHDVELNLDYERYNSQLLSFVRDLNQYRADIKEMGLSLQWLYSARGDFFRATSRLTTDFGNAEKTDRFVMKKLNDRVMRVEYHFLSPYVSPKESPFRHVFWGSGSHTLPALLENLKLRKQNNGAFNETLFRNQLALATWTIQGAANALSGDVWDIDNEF

Biological target: T1, human transferrin receptor (hTfR) (Homo sapiens, UniProt P02786)
T1 construct: made in house
Test: Evaluation of molecular interaction between transferrin receptor (hTfR) and peptide using surface plasmon resonance (SPR)
Assay type: binding
Conditions: KD class of peptide with linker binding to hTfR, by SPR (TABLE 5); read-out: SPR
Summary of the method: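 Recombinant hTfR dimer (0.5 μM) immobilized on Ni-loaded NTA chip via EDC/NHS, ethanolamine-capped. Peptides at 5–100 nM in HEPES pH 8.0 buffer with 150 mM NaCl, 0.05% Tween 20, 0.1% BSA, 1.0% DMSO, flowed by single-cycle kinetics; KD from least-squares fit of sensorgrams.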

Row | Structure (SMILES) | pKd
1 | CC[C@H](C)[C@@H]1NC(=O)[C@H](Cc2ccc(OCC(=O)O)cc2)NC(=O)[C@H](Cc2ccc(O)cc2)NC(=O)[C@H](CC(N)=O)NC(=O)[C@H](Cc2cn(CC(=O)O)c3ccccc23)NC(=O)[C@H](C(C)C)NC(=O)[C@H](Cc2cccc(Cl)c2)N(C)C(=O)[C@H](C(C)C)NC(=O)[C@H](C)NC(=O)CSC[C@@H](C(=O)NCC(=O)N[C@H](CCC(=O)O)C(=O)N[C@H](CCC(=O)O)C(=O)N[C@H](CO)C(=O)N[C@H](CO)C(=O)N[C@H](CCC(=O)O)C(=O)N[C@@H](CCCCNC(C)=O)C(N)=O)NC(=O)[C@H](Cc2ccc(O)cc2)N(C)C(=O)[C@H](Cc2ccccc2)NC(=O)[C@H](CCCNC(=N)N)NC(=O)[C@H](CCCNC(=N)N)NC(=O)[C@H]([C@@H](C)CC)NC1=O [compound 328] | 7.00 to 9.00
2 | CC[C@H](C)[C@@H]1NC(=O)[C@H](Cc2ccc(OCC(=O)O)cc2)NC(=O)[C@H](Cc2ccc(O)cc2)NC(=O)[C@H](CC(N)=O)NC(=O)[C@H](Cc2cn(CC(=O)O)c3ccccc23)NC(=O)[C@H](C(C)C)NC(=O)[C@H](Cc2cccc(Cl)c2)N(C)C(=O)[C@H](C(C)C)NC(=O)[C@H](C)NC(=O)CSC[C@@H](C(=O)NCC(=O)N[C@H](CCC(=O)O)C(=O)N[C@H](CO)C(=O)N[C@H](CO)C(=O)N[C@H](CCC(=O)O)C(=O)N[C@H](CCC(=O)O)C(=O)N[C@@H](CCCCNC(C)=O)C(N)=O)NC(=O)[C@H](Cc2ccc(O)cc2)N(C)C(=O)[C@H](Cc2ccccc2)NC(=O)[C@H](CCCNC(=N)N)NC(=O)[C@H](CCCNC(=N)N)NC(=O)[C@H]([C@@H](C)CC)NC1=O [compound 329] | 7.00 to 9.00
3 | CC[C@H](C)[C@@H]1NC(=O)[C@H](Cc2ccc(OCC(=O)O)cc2)NC(=O)[C@H](Cc2ccc(O)cc2)NC(=O)[C@H](CC(N)=O)NC(=O)[C@H](Cc2cn(CC(=O)O)c3ccccc23)NC(=O)[C@H](C(C)C)NC(=O)[C@H](Cc2cccc(Cl)c2)N(C)C(=O)[C@H](C(C)C)NC(=O)[C@H](C)NC(=O)CSC[C@@H](C(=O)NCC(=O)N[C@H](CCC(=O)O)C(=O)N[C@H](CCC(=O)O)C(=O)N[C@H](CO)C(=O)N[C@H](CCC(=O)O)C(=O)N[C@H](CO)C(=O)N[C@@H](CCCCNC(C)=O)C(N)=O)NC(=O)[C@H](Cc2ccc(O)cc2)N(C)C(=O)[C@H](Cc2ccccc2)NC(=O)[C@H](CCCNC(=N)N)NC(=O)[C@H](CCCNC(=N)N)NC(=O)[C@H]([C@@H](C)CC)NC1=O [compound 330] | 7.00 to 9.00
4 | CC[C@H](C)[C@@H]1NC(=O)[C@H](Cc2ccc(OCC(=O)O)cc2)NC(=O)[C@H](Cc2ccc(N)nc2)NC(=O)[C@H](CC(N)=O)NC(=O)[C@H](Cc2c[nH]c3ccccc23)NC(=O)[C@H](C(C)C)NC(=O)[C@H](Cc2cccc(Cl)c2)N(C)C(=O)[C@H](C(C)C)NC(=O)[C@H](C)NC(=O)CSC[C@@H](C(=O)NCC(=O)N[C@H](CO)C(=O)N[C@H](CO)C(=O)N[C@H](CO)C(=O)N[C@H](CO)C(=O)N[C@H](CO)C(=O)N[C@@H](CCCCN=[N+]=[N-])C(N)=O)NC(=O)[C@H](Cc2ccc(O)cc2)N(C)C(=O)[C@H](Cc2cccc(C(=O)O)c2)NC(=O)[C@H](CCCNC(=N)N)NC(=O)[C@H](CCC(=O)NCCOCCOCCOCCOCCOCCOCCOCCOC)NC(=O)[C@H]([C@@H](C)CC)NC1=O [compound 335] | 7.00 to 9.00
5 | CC[C@H](C)[C@@H]1NC(=O)[C@H](Cc2ccc(OCC(=O)O)cc2)NC(=O)[C@H](Cc2ccc(N)nc2)NC(=O)[C@H](CC(N)=O)NC(=O)[C@H](Cc2c[nH]c3ccccc23)NC(=O)[C@H](C(C)C)NC(=O)[C@H](Cc2cccc(Cl)c2)N(C)C(=O)[C@H](C(C)C)NC(=O)[C@H](C)NC(=O)CSC[C@@H](C(=O)NCC(=O)N[C@H](CCC(=O)O)C(=O)N[C@H](CCC(=O)O)C(=O)N[C@H](CO)C(=O)N[C@H](CO)C(=O)N[C@H](CO)C(=O)N[C@H](CCCCN)C(N)=O)NC(=O)[C@H](Cc2ccc(O)cc2)N(C)C(=O)[C@H](Cc2cccc(C(=O)O)c2)NC(=O)[C@H](CCCNC(=N)N)NC(=O)[C@H](CCC(=O)NCCOCCOCCOCCOCCOCCOCCOCCOC)NC(=O)[C@H]([C@@H](C)CC)NC1=O [compound 336] | 7.00 to 9.00
6 | CC[C@H](C)[C@@H]1NC(=O)[C@H](Cc2ccc(OCC(=O)O)cc2)NC(=O)[C@H](Cc2ccc(N)nc2)NC(=O)[C@H](CC(N)=O)NC(=O)[C@H](Cc2c[nH]c3ccccc23)NC(=O)[C@H](C(C)C)NC(=O)[C@H](Cc2cccc(Cl)c2)N(C)C(=O)[C@H](C(C)C)NC(=O)[C@H](C)NC(=O)CSC[C@@H](C(=O)NCC(=O)N[C@H](CCC(=O)O)C(=O)N[C@H](CO)C(=O)N[C@H](CO)C(=O)N[C@H](CO)C(=O)N[C@H](CO)C(=O)N[C@H](CCCCN)C(N)=O)NC(=O)[C@H](Cc2ccc(O)cc2)N(C)C(=O)[C@H](Cc2cccc(C(=O)O)c2)NC(=O)[C@H](CCCNC(=N)N)NC(=O)[C@H](CCC(=O)NCCOCCOCCOCCOCCOCCOCCOCCOC)NC(=O)[C@H]([C@@H](C)CC)NC1=O [compound 337] | 7.00 to 9.00
7 | CC[C@H](C)[C@@H]1NC(=O)[C@H](Cc2ccc(OCC(=O)O)cc2)NC(=O)[C@H](Cc2ccc(N)nc2)NC(=O)[C@H](CC(N)=O)NC(=O)[C@H](Cc2c[nH]c3ccccc23)NC(=O)[C@H](C(C)C)NC(=O)[C@H](Cc2cccc(Cl)c2)N(C)C(=O)[C@H](C(C)C)NC(=O)[C@H](C)NC(=O)CSC[C@@H](C(=O)NCC(=O)NCC(=O)NCC(=O)NCC(=O)N[C@@H](CO)C(=O)N[C@@H](CO)C(=O)N[C@H](CCCCN)C(N)=O)NC(=O)[C@H](Cc2ccc(O)cc2)N(C)C(=O)[C@H](Cc2cccc(C(=O)O)c2)NC(=O)[C@H](CCCNC(=N)N)NC(=O)[C@H](CCC(=O)NCCOCCOCCOCCOCCOCCOCCOCCOC)NC(=O)[C@H]([C@@H](C)CC)NC1=O [compound 338] | 7.00 to 9.00
8 | CC[C@H](C)[C@@H]1NC(=O)[C@H](Cc2ccc(OCC(=O)O)cc2)NC(=O)[C@H](Cc2ccc(N)nc2)NC(=O)[C@H](CC(N)=O)NC(=O)[C@H](Cc2c[nH]c3ccccc23)NC(=O)[C@H](C(C)C)NC(=O)[C@H](Cc2cccc(Cl)c2)N(C)C(=O)[C@H](C(C)C)NC(=O)[C@H](C)NC(=O)CSC[C@@H](C(=O)NCC(=O)NCC(=O)NCC(=O)NCC(=O)N[C@H](CO)C(=O)N[C@H](CO)C(=O)N[C@H](CCCCN)C(N)=O)NC(=O)[C@H](Cc2ccc(O)cc2)N(C)C(=O)[C@H](Cc2cccc(C(=O)O)c2)NC(=O)[C@H](CCCNC(=N)N)NC(=O)[C@H](CCC(=O)NCCOCCOCCOCCOCCOCCOCCOCCOC)NC(=O)[C@H]([C@@H](C)CC)NC1=O [compound 339] | 7.00 to 9.00
9 | CC[C@H](C)[C@@H]1NC(=O)[C@H](Cc2ccc(OCC(=O)O)cc2)NC(=O)[C@H](Cc2ccc(N)nc2)NC(=O)[C@H](CC(N)=O)NC(=O)[C@H](Cc2c[nH]c3ccccc23)NC(=O)[C@H](C(C)C)NC(=O)[C@H](Cc2cccc(Cl)c2)N(C)C(=O)[C@H](C(C)C)NC(=O)[C@H](C)NC(=O)CSC[C@@H](C(=O)NCC(=O)NCC(=O)N[C@H](CO)C(=O)NCC(=O)N[C@H](CO)C(=O)NCC(=O)N[C@H](CCCCN)C(N)=O)NC(=O)[C@H](Cc2ccc(O)cc2)N(C)C(=O)[C@H](Cc2cccc(C(=O)O)c2)NC(=O)[C@H](CCCNC(=N)N)NC(=O)[C@H](CCC(=O)NCCOCCOCCOCCOCCOCCOCCOCCOC)NC(=O)[C@H]([C@@H](C)CC)NC1=O [compound 340] | 7.00 to 9.00

Next, values leading:

Row | pKd | Structure (SMILES)
10 | 7.00 to 9.00 | CC[C@H](C)[C@@H]1NC(=O)[C@H](Cc2ccc(OCC(=O)O)cc2)NC(=O)[C@H](Cc2ccc(O)cc2)NC(=O)[C@H](CC(N)=O)NC(=O)[C@H](Cc2cn(CC(=O)O)c3ccccc23)NC(=O)[C@H](C(C)C)NC(=O)[C@H](Cc2cccc(Cl)c2)N(C)C(=O)[C@H](C(C)C)NC(=O)[C@H](C)NC(=O)CSC[C@@H](C(=O)NCC(=O)N[C@H](CCC(=O)O)C(=O)N[C@H](CO)C(=O)N[C@H](CCC(=O)O)C(=O)N[C@H](CCC(=O)O)C(=O)N[C@H](CO)C(=O)N[C@@H](CCCCNC(C)=O)C(N)=O)NC(=O)[C@H](Cc2ccc(O)cc2)N(C)C(=O)[C@H](Cc2ccccc2)NC(=O)[C@H](CCCNC(=N)N)NC(=O)[C@H](CCCNC(=N)N)NC(=O)[C@H]([C@@H](C)CC)NC1=O [compound 331]
11 | 7.00 to 9.00 | CC[C@H](C)[C@@H]1NC(=O)[C@H](Cc2ccc(OCC(=O)O)cc2)NC(=O)[C@H](Cc2ccc(O)cc2)NC(=O)[C@H](CC(N)=O)NC(=O)[C@H](Cc2cn(CC(=O)O)c3ccccc23)NC(=O)[C@H](C(C)C)NC(=O)[C@H](Cc2cccc(Cl)c2)N(C)C(=O)[C@H](C(C)C)NC(=O)[C@H](C)NC(=O)CSC[C@@H](C(=O)NCC(=O)N[C@H](CO)C(=O)N[C@H](CCC(=O)O)C(=O)N[C@H](CCC(=O)O)C(=O)N[C@H](CO)C(=O)N[C@H](CCC(=O)O)C(=O)N[C@@H](CCCCNC(C)=O)C(N)=O)NC(=O)[C@H](Cc2ccc(O)cc2)N(C)C(=O)[C@H](Cc2ccccc2)NC(=O)[C@H](CCCNC(=N)N)NC(=O)[C@H](CCCNC(=N)N)NC(=O)[C@H]([C@@H](C)CC)NC1=O [compound 332]
12 | 7.00 to 9.00 | CC[C@H](C)[C@@H]1NC(=O)[C@H](Cc2ccc(OCC(=O)O)cc2)NC(=O)[C@H](Cc2ccc(O)cc2)NC(=O)[C@H](CC(N)=O)NC(=O)[C@H](Cc2cn(CC(=O)O)c3ccccc23)NC(=O)[C@H](C(C)C)NC(=O)[C@H](Cc2cccc(Cl)c2)N(C)C(=O)[C@H](C(C)C)NC(=O)[C@H](C)NC(=O)CSC[C@@H](C(=O)NCC(=O)N[C@H](CO)C(=O)N[C@H](CCC(=O)O)C(=O)N[C@H](CO)C(=O)N[C@H](CCC(=O)O)C(=O)N[C@H](CCC(=O)O)C(=O)N[C@@H](CCCCNC(C)=O)C(N)=O)NC(=O)[C@H](Cc2ccc(O)cc2)N(C)C(=O)[C@H](Cc2ccccc2)NC(=O)[C@H](CCCNC(=N)N)NC(=O)[C@H](CCCNC(=N)N)NC(=O)[C@H]([C@@H](C)CC)NC1=O [compound 333]
13 | > 9.00 | CC[C@H](C)[C@@H]1NC(=O)[C@H](Cc2ccc(OCC(=O)O)cc2)NC(=O)[C@H](Cc2ccc(O)cc2)NC(=O)[C@H](CC(N)=O)NC(=O)[C@H](Cc2cn(CC(=O)O)c3ccccc23)NC(=O)[C@H](C(C)C)NC(=O)[C@H](Cc2cccc(Cl)c2)N(C)C(=O)[C@H](C(C)C)NC(=O)[C@H](C)NC(=O)CSC[C@@H](C(=O)NCC(=O)N[C@H](CCC(=O)O)C(=O)N[C@H](CO)C(=O)N[C@H](CCC(=O)O)C(=O)N[C@H](CO)C(=O)N[C@H](CCC(=O)O)C(=O)N[C@@H](CCCCNC(C)=O)C(N)=O)NC(=O)[C@H](Cc2ccc(O)cc2)N(C)C(=O)[C@H](Cc2ccccc2)NC(=O)[C@H](CCCNC(=N)N)NC(=O)[C@H](CCCNC(=N)N)NC(=O)[C@H]([C@@H](C)CC)NC1=O [compound 334]
